# Reference: ChEMBL document CHEMBL1148008, “Antimicrobial and cytotoxic activity of agelasine and agelasimine analogs” (Bioorg Med Chem, 2007)
# Tested on: Escherichia coli
# Assay: Antibacterial activity against Escherichia coli ATCC 25922 after 20 hrs by broth microdilution method
# Assay type: functional
# In short: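 Strains grown 24 h at 35 °C on tryptone-soya agar. Colonies suspended in saline to 0.5 McFarland, then diluted 1:10 in Mueller-Hinton broth (~10⁷ CFU/mL). Inoculum added to twofold dilutions in broth (final 0.125–32 µg/mL) in triplicate. Incubated aerobically at 35 °C for 20 h. MIC is the lowest concentration giving complete growth inhibition. Repeated at least once; gentamycin/streptomycin served as QC.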
sequence,measurement,value
GENTAMICIN,MIC,0.5 µg/mL
